{"source": "patent US6921811B2", "about": "“Bioactive coating composition and methods” (BioSurface Engineering Technologies, Inc., priority 1998, dated 2005)", "tested_on": "C3H10T1/2 cells", "test": "Attachment of C3H10T1/2 cells to silyl-heparin coated wells complexed with adhesive molecules, crystal violet", "type": "cell-based, murine", "design": "unit not given here", "conditions": "after two hours; hydrogel-polystyrene 96-well plates coated with silyl-heparin complexes and the listed adhesive molecule; proteins 100 μg/ml, serum undiluted", "experimental": "Attachment of C3H10T1/2 cells after two hours to wells of 96-well, hydrogel-polystyrene plates coated with silyl-heparin complexes and the listed adhesive molecule was detected by staining with crystal violet. All proteins were used at a concentration of 100 μg/ml in buffered saline. Serum was used without dilution. Statistical significance was assessed relative to the values from buffered saline using Student's t-test, with * indicating p<0.05, ** indicating p<0.01 and *** indicating p<0.001."}
{"substance": "albumin: protein used at 100 μg/ml on silyl-heparin coated wells", "values": [{"measurement": "attachment of C3H10T1/2 cells by crystal violet staining, Average ± S.E.", "result": "0.08 ± 0.00"}]}
